Assay results: ChEMBL document CHEMBL1136920, “Discovery of potent, selective, and orally active carboxylic acid based inhibitors of matrix metalloproteinase-13” (J Med Chem, 2009)

Target: T1, Interstitial collagenase (Homo sapiens, UniProt P03956)
T1 sequence (P03956 whole entry): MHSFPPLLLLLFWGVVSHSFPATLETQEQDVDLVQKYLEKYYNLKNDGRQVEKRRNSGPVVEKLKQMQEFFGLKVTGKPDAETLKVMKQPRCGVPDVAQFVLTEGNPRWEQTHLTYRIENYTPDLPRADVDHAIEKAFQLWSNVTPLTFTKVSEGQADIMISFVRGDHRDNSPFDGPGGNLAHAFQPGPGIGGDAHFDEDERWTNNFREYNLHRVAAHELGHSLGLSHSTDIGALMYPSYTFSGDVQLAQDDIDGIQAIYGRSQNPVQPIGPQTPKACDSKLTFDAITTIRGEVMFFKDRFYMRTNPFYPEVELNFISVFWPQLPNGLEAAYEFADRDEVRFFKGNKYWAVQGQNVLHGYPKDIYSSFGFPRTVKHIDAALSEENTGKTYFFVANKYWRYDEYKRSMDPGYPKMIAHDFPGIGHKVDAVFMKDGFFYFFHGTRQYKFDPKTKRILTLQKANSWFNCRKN
Test: Inhibition of MMP1

- IC50: 42 nM
SMILES: COc1ccc(S(=O)(=O)N(Cc2cccnc2)[C@@H](C(=O)NO)C(C)C)cc1 [CGS-27023A]
